Data from ChEMBL document CHEMBL1131007, “5-Fluoro-2-methyl-N-[4-(5H-pyrrolo[2,1-c]-[1, 4]benzodiazepin-10(11H)-ylcarbonyl)-3-chlorophenyl]benzamide (VPA-985): an orally active arginine vasopressin antagonist with selectivity for V2 receptors” (J Med Chem, 1998).

Species: Homo sapiens
Experiment: Relative affinity for human vasopressin receptors V1a and V2
Procedure, shortened: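 Ratio from IC50 values: V1a by displacement of 3H-AVP or 3H-[d(CH2)5 1Tyr(Me)2,Arg8]-AVP from human platelet membranes; V2 by displacement of 3H-AVP from membranes of murine fibroblast LV2 cells expressing human V2 receptors.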

Selectivity: 13
Structure (SMILES): Cc1ccc(F)cc1C(=O)Nc1ccc(C(=O)N2Cc3cccn3Cc3ccccc32)cc1
